Assay [1] concerns the target rabbit skeletal muscle actin (rabbit) (UniProt P68135).
For assay [2] the target is unchanged. The source holds these as a separate data set.
Assay [3] shares this target. This is another data set of the same source.
Assay [4] shares this target. The source holds these as a separate data set.

In assay [1], “human recombinant H2A histone (natural protein)” yielded a NaCl at which H2A histone induced F-actin bundles are completely dissociated, low speed centrifugation (0-400 mM NaCl) of 300 mM. The DNase1 concentration that fully depolymerizes 4 μM F-actin bundled by 3 μM H2A histone, low speed centrifugation (series 2-15 μM DNase1) in assay [2] stood at 10 µM. In addition, the F-actin (4 μM, bundled by 3 μM H2A histone) sedimented at low speed after 200 μg/ml DNA, as percent of that without DNA in assay [3] was 15%. The substance also had a bundling of 4 μM F-actin by 3 μM (42 μg/ml) H2A histone, low speed centrifugation (series 1-4 μM) in assay [4] of 94%.

Source of the values: publication PMC5573295.
